# Results from PubChem BioAssay (NCI).
# Some of these compounds have results that are not shown, active ones among them.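 Cultured in 96-well plates, cells were exposed to test compound for 48 hours across five concentrations. Abbreviation: GI50, concentration required for 50% inhibition of growth. Definition used: TGI = concentration required for complete inhibition of growth.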
# Experiments:
# Assay in all cases: growth of human tumour cells (NCI), 48 h
# NCI-H23 lung = system: NCI-H23 lung
# HL-60(TB) leukemia = system: HL-60(TB) leukemia
# HCC-2998 colon = system: HCC-2998 colon
# U251 CNS = system: U251 CNS
# HCT-116 colon = system: HCT-116 colon
# HCT-15 colon = system: HCT-15 colon
# SK-MEL-5 melanoma = system: SK-MEL-5 melanoma
# MOLT-4 leukemia = system: MOLT-4 leukemia
# MCF7 breast = system: MCF7 breast
# MALME-3M melanoma = system: MALME-3M melanoma
# 786-0 renal = system: 786-0 renal
# NCI-H226 lung = system: NCI-H226 lung
# TK-10 renal = system: TK-10 renal
# HOP-62 NSCLC = system: HOP-62 NSCLC
# DU-145 prostate = system: DU-145 prostate
# K-562 leukemia = system: K-562 leukemia
# HT29 colon = system: HT29 colon
# SF-539 CNS = system: SF-539 CNS
# A498 renal = system: A498 renal
# T-47D breast = system: T-47D breast
# MDA-N = system: MDA-N
# NCI-H322M lung = system: NCI-H322M lung
# MDA-MB-231 breast = system: MDA-MB-231 breast
# SNB-75 CNS = system: SNB-75 CNS
# RXF 393 renal = system: RXF 393 renal
# UO-31 renal = system: UO-31 renal
# IGROV1 ovarian = system: IGROV1 ovarian
# SF-268 CNS = system: SF-268 CNS
# SK-OV-3 ovarian = system: SK-OV-3 ovarian
# BT-549 breast = system: BT-549 breast
# NCI/ADR-RES ovarian = system: NCI/ADR-RES ovarian
# HS 578T breast = system: HS 578T breast
# OVCAR-5 ovarian = system: OVCAR-5 ovarian
# SK-MEL-2 melanoma = system: SK-MEL-2 melanoma
# OVCAR-3 ovarian = system: OVCAR-3 ovarian
# NCI-H460 lung = system: NCI-H460 lung
# SF-295 CNS = system: SF-295 CNS
# OVCAR-8 ovarian = system: OVCAR-8 ovarian
# MDA-MB-435 = system: MDA-MB-435
# SNB-19 CNS = system: SNB-19 CNS
# NCI-H522 lung = system: NCI-H522 lung
# EKVX NSCLC = system: EKVX NSCLC
# UACC-257 melanoma = system: UACC-257 melanoma
# A549 NSCLC = system: A549 NSCLC
# PC-3 prostate = system: PC-3 prostate
# M14 melanoma = system: M14 melanoma
# HOP-92 NSCLC = system: HOP-92 NSCLC
# OVCAR-4 ovarian = system: OVCAR-4 ovarian
# LOX IMVI melanoma = system: LOX IMVI melanoma
# CAKI-1 renal = system: CAKI-1 renal
# SN12C renal = system: SN12C renal
# SK-MEL-28 melanoma = system: SK-MEL-28 melanoma
# COLO 205 colon = system: COLO 205 colon
# SW-620 colon = system: SW-620 colon
# CCRF-CEM leukemia = system: CCRF-CEM leukemia
# ACHN renal = system: ACHN renal
# KM12 colon = system: KM12 colon
# SR leukemia = system: SR leukemia
# UACC-62 melanoma = system: UACC-62 melanoma
compound,measurement,setting,value
CC(Cl)CN(C)CC(C)Cl (stereo not drawn),GI50,NCI-H23 lung,26.9 µM
same,TGI,NCI-H23 lung,> 100 µM
same,GI50,HL-60(TB) leukemia,8.35 µM
same,TGI,HL-60(TB) leukemia,> 100 µM
same,GI50,HCC-2998 colon,66.4 µM
same,TGI,HCC-2998 colon,> 100 µM
same,GI50,U251 CNS,37.7 µM
same,TGI,U251 CNS,> 100 µM
same,GI50,HCT-116 colon,42.2 µM
same,TGI,HCT-116 colon,> 100 µM
same,GI50,HCT-15 colon,38.5 µM
same,TGI,HCT-15 colon,> 100 µM
same,GI50,SK-MEL-5 melanoma,> 100 µM
same,TGI,SK-MEL-5 melanoma,> 100 µM
same,GI50,MOLT-4 leukemia,3.28 µM
same,TGI,MOLT-4 leukemia,> 100 µM
same,GI50,MCF7 breast,27.3 µM
same,TGI,MCF7 breast,> 100 µM
same,GI50,MALME-3M melanoma,27.4 µM
same,TGI,MALME-3M melanoma,> 100 µM
same,GI50,786-0 renal,25.7 µM
same,TGI,786-0 renal,> 100 µM
same,GI50,NCI-H226 lung,> 100 µM
same,TGI,NCI-H226 lung,> 100 µM
same,GI50,TK-10 renal,> 100 µM
same,TGI,TK-10 renal,> 100 µM
same,GI50,HOP-62 NSCLC,> 100 µM
same,TGI,HOP-62 NSCLC,> 100 µM
same,GI50,DU-145 prostate,33.4 µM
same,TGI,DU-145 prostate,> 100 µM
same,GI50,K-562 leukemia,> 100 µM
same,TGI,K-562 leukemia,> 100 µM
same,GI50,HT29 colon,81.5 µM
same,TGI,HT29 colon,> 100 µM
same,GI50,SF-539 CNS,32.8 µM
same,TGI,SF-539 CNS,> 100 µM
same,GI50,A498 renal,> 100 µM
same,TGI,A498 renal,> 100 µM
same,GI50,T-47D breast,14.3 µM
same,TGI,T-47D breast,> 100 µM
same,GI50,MDA-N,> 100 µM
same,TGI,MDA-N,> 100 µM
same,GI50,NCI-H322M lung,> 100 µM
same,TGI,NCI-H322M lung,> 100 µM
same,GI50,MDA-MB-231 breast,> 100 µM
same,TGI,MDA-MB-231 breast,> 100 µM
same,GI50,SNB-75 CNS,39.9 µM
same,TGI,SNB-75 CNS,> 100 µM
same,GI50,RXF 393 renal,38.4 µM
same,TGI,RXF 393 renal,> 100 µM
same,GI50,UO-31 renal,16.4 µM
same,TGI,UO-31 renal,> 100 µM
same,GI50,IGROV1 ovarian,48.4 µM
same,TGI,IGROV1 ovarian,> 100 µM
same,GI50,SF-268 CNS,37.6 µM
same,TGI,SF-268 CNS,> 100 µM
same,GI50,SK-OV-3 ovarian,> 100 µM
same,TGI,SK-OV-3 ovarian,> 100 µM
same,GI50,BT-549 breast,> 100 µM
same,TGI,BT-549 breast,> 100 µM
same,GI50,NCI/ADR-RES ovarian,69.7 µM
same,TGI,NCI/ADR-RES ovarian,> 100 µM
same,GI50,HS 578T breast,> 100 µM
same,TGI,HS 578T breast,> 100 µM
same,GI50,OVCAR-5 ovarian,> 100 µM
same,TGI,OVCAR-5 ovarian,> 100 µM
same,GI50,SK-MEL-2 melanoma,> 100 µM
same,TGI,SK-MEL-2 melanoma,> 100 µM
same,GI50,OVCAR-3 ovarian,> 100 µM
same,TGI,OVCAR-3 ovarian,> 100 µM
same,GI50,NCI-H460 lung,2.67 µM
same,TGI,NCI-H460 lung,14.8 µM
same,GI50,SF-295 CNS,58.9 µM
same,TGI,SF-295 CNS,> 100 µM
same,GI50,OVCAR-8 ovarian,> 100 µM
same,TGI,OVCAR-8 ovarian,> 100 µM
same,GI50,MDA-MB-435,> 100 µM
same,TGI,MDA-MB-435,> 100 µM
same,GI50,SNB-19 CNS,> 100 µM
same,TGI,SNB-19 CNS,> 100 µM
same,GI50,NCI-H522 lung,13.9 µM
same,TGI,NCI-H522 lung,39.9 µM
same,GI50,EKVX NSCLC,86.7 µM
same,TGI,EKVX NSCLC,> 100 µM
same,GI50,UACC-257 melanoma,> 100 µM
same,TGI,UACC-257 melanoma,> 100 µM
same,GI50,A549 NSCLC,14.4 µM
same,TGI,A549 NSCLC,> 100 µM
same,GI50,PC-3 prostate,> 100 µM
same,TGI,PC-3 prostate,> 100 µM
same,GI50,M14 melanoma,37.4 µM
same,TGI,M14 melanoma,> 100 µM
same,GI50,HOP-92 NSCLC,20.1 µM
same,TGI,HOP-92 NSCLC,> 100 µM
same,GI50,OVCAR-4 ovarian,> 100 µM
same,TGI,OVCAR-4 ovarian,> 100 µM
same,GI50,LOX IMVI melanoma,24.5 µM
same,TGI,LOX IMVI melanoma,> 100 µM
same,GI50,CAKI-1 renal,8.38 µM
same,TGI,CAKI-1 renal,> 100 µM
same,GI50,SN12C renal,14.8 µM
same,TGI,SN12C renal,> 100 µM
same,GI50,SK-MEL-28 melanoma,> 100 µM
same,TGI,SK-MEL-28 melanoma,> 100 µM
same,GI50,COLO 205 colon,49.6 µM
same,TGI,COLO 205 colon,> 100 µM
same,GI50,SW-620 colon,> 100 µM
same,TGI,SW-620 colon,> 100 µM
same,GI50,CCRF-CEM leukemia,3.97 µM
same,TGI,CCRF-CEM leukemia,40.2 µM
same,GI50,ACHN renal,5.83 µM
same,TGI,ACHN renal,> 100 µM
same,GI50,KM12 colon,> 100 µM
same,TGI,KM12 colon,> 100 µM
same,GI50,SR leukemia,2.3 µM
same,TGI,SR leukemia,> 100 µM
same,GI50,UACC-62 melanoma,43.1 µM
same,TGI,UACC-62 melanoma,> 100 µM
